The values that follow are results of earlier work, collected in patent US20050227929A1, “Combination therapy comprising a Cox-2 inhibitor and an antineoplastic agent” (priority 2003, published 2005).

The series has as its system Hodgkin's lymphoma.

B1: Zevalin (conjugate, chains of the INN, looked up)
heavy: QAYLQQSGAELVRPGASVKMSCKASGYTFTSYNMHWVKQTPRQGLEWIGAIYPGNGDTSYNQKFKGKATLTVDKSSSTAYMQLSSLTSEDSAVYFCARVVYYSNSYWYFDVWGTGTTVTVSAPSVYPLAPVCGDTTGSSVTLGCLVKGYFPEPVTLTWNSGSLSSGVHTFPAVLQSDLYTLSSSVTVTSSTWPSQSITCNVAHPASSTKVDKKIEPRGPTIKPCPPCKCPAPNLLGGPSVFIFPPKIKDVLMISLSPIVTCVVVDVSEDDPDVQISWFVNNVEVHTAQTQTHREDYNSTLRVVSALPIQHQDWMSGKEFKCKVNNKDLPAPIERTISKPKGSVRAPQVYVLPPPEEEMTKKQVTLTCMVTDFMPEDIYVEWTNNGKTELNYKNTEPVLDSDGSYFMYSKLRVEKKNWVERNSYSCSVVHEGLHNHHTTKSFSR
light: QIVLSQSPAILSASPGEKVTMTCRASSSVSYMHWYQQKPGSSPKPWIYAPSNLASGVPARFSGSGSGTSYSLTISRVEAEDAATYYCQQWSFNPPTFGAGTKLELKRADAAPTVFIFPPSDEQLKSGTASVVCLLNNFYPREAKVQWKVDNALQSGNSQESVTEQDSKDSTYSLSSTLTLSKADYEKHKVYACEVTHQGLSSPVTKSFN
modifications: tiuxetan chelator, yttrium-90
For B1, the overall response rate entry (Hodgkin's lymphoma patients receiving 0.2, 0.3 or 0.4 mCi/kg in combination with rituximab) is on record as “rate is 82%”. The “overall response rate at the highest dose” value (Hodgkin's lymphoma patients, highest dose (0.4 mCi/kg) in combination with rituximab) is “(81% at the”.
